Data set [1] can be described thus: Measurement of bioavailability (BA). The following applies: cynomolgus monkey, oral 3 mg/kg vs intravenous 1 mg/kg. How it is done:
The test compound was weighed, and dissolved in 30% HP-β-CD (Trademark; Mitsubishi Corporation) to make 1 mg/mL solution for intravenous administration. The test compound was weighed, and dissolved in Soltol (Trademark; BASF Takeda Vitamins Ltd.)/propylene glycol=7/3 heated to 50° C. to be 5 mg/mL solution thereof. Equal amount of each five samples were weighed, mixed, and then diluted with distilled water for injection by five times to make a solution for oral administration. The solution for intravenous administration (1 mg/kg) was administered to cynomolgus monkey (male, Hamri Co., Ltd) via superficial cephalic vein by single intravenous dose (n=3). The solution for oral administration (3 mg/kg) was forced intragastric administering to cynomolgus monkey (male, Hamri Co., Ltd) with sonde (n=3). The administering was done in the fasting state but they have freedom to drink water. […] The residue was redissolved in 100 μL of mobile phase A, and then 40 μL of the resulting solution was analyzed by LC/MS/MS […]
(§1) Transition of plasma concentration of the test compound in monkey was analyzed with non-compartment analytic method using WinNonlin 4.0.1 (Pharsight), and AUC was calculated.
BA was calculated by the following calculation formula. […]

A short description of data set [2]: Pharmacokinetics test in blood in monkey. The following applies: cynomolgus monkey, oral administration 1 mg/kg, mixed solution of five test compounds, plasma. How it is done: Each of five test compounds were weighed, and dissolved in Soltol (Trademark; BASF Takeda Vitamins Ltd.)/propylene glycol=7/3 heated to 50° C. to be 5 mg/mL solution thereof. Equal amount of each five samples were weighed, mixed, and then diluted with distilled water for injection by five times to make a solution for oral administration. The solution for oral administration (1 mg/kg) was forced intragastric administering to cynomolgus monkey (male, Hamri Co., Ltd) with sonde (n=3). The administering was done in the fasting state but they have freedom to drink water. Each 1 mL of blood samples were collected from superficial cephalic vein, using a heparinized syringe, 5, 15, 30 minutes, 1, 2, 4, 6, 8 and 24 hours after administration. Collected samples were stored into ice, centrifuged at 3000 rpm for 15 minutes to get plasma. The plasma was stored at −20° C. The plasma sample stored at −20° C. was dissolved, then 100 μL of the resulting solution was added by internal standard solution and acetonitrile (2 mL), agitated, centrifuged at 3000 rpm for 10 minutes. […] The residue was redissolved in 100 μL of mobile phase A, and then 40 μL of the resulting solution was analyzed by LC/MS/MS […]
as §1

Consider two molecules from US8604207B2, “Nitrogenous heterocyclic derivative and medicine containing the same as an active ingredient” (Ono Pharmaceutical Co., Ltd., priority 2004, dated 2013).

This is a selection: effects in other tests are not listed, and their absence says nothing.

As to `CS(=O)(=O)c1ccc(Oc2ccc(CN3CCC(N(C(=O)Nc4ccc(F)cc4)c4ccccc4)CC3)cn2)cc1`, the BA in data set [1] turned out to be 42%. In data set [2], the exposure (AUC) is listed as 226 ng·h/mL.

For the molecule `Cc1ccc(NC(=O)N(c2ccccc2)C2CCN(Cc3ccc(Oc4ccc(NS(C)(=O)=O)cc4)nc3)CC2)cn1`, in data set [2], the AUC was found to be 1150 ng·h/mL.
